These are literature values, as cited in US7833976B2, “Methods for treatment of tumors and metastases using a combination of anti-angiogenic and immuno therapies” (The Scripps Research Institute, priority 1999, dated 2010).

For this data set the following is noted: treatment of B-cell non-Hodgkin's lymphoma.

B1: IDEC-Y2B8: radioimmunotherapeutic that targets B-cells, for CD20(+) B-cell non-Hodgkin's lymphoma (conjugate, chains of the INN, looked up)
heavy: QAYLQQSGAELVRPGASVKMSCKASGYTFTSYNMHWVKQTPRQGLEWIGAIYPGNGDTSYNQKFKGKATLTVDKSSSTAYMQLSSLTSEDSAVYFCARVVYYSNSYWYFDVWGTGTTVTVSAPSVYPLAPVCGDTTGSSVTLGCLVKGYFPEPVTLTWNSGSLSSGVHTFPAVLQSDLYTLSSSVTVTSSTWPSQSITCNVAHPASSTKVDKKIEPRGPTIKPCPPCKCPAPNLLGGPSVFIFPPKIKDVLMISLSPIVTCVVVDVSEDDPDVQISWFVNNVEVHTAQTQTHREDYNSTLRVVSALPIQHQDWMSGKEFKCKVNNKDLPAPIERTISKPKGSVRAPQVYVLPPPEEEMTKKQVTLTCMVTDFMPEDIYVEWTNNGKTELNYKNTEPVLDSDGSYFMYSKLRVEKKNWVERNSYSCSVVHEGLHNHHTTKSFSR
light: QIVLSQSPAILSASPGEKVTMTCRASSSVSYMHWYQQKPGSSPKPWIYAPSNLASGVPARFSGSGSGTSYSLTISRVEAEDAATYYCQQWSFNPPTFGAGTKLELKRADAAPTVFIFPPSDEQLKSGTASVVCLLNNFYPREAKVQWKVDNALQSGNSQESVTEQDSKDSTYSLSSTLTLSKADYEKHKVYACEVTHQGLSSPVTKSFN
modifications: yttrium-90 tiuxetan
notes: radioimmunotherapeutic that targets B-cells, for CD20(+) B-cell non-Hodgkin's lymphoma
In the case of B1, the maximum tolerated dose is recorded as 0.4 mCui/kg body weight.
